From publication PMC6843736 (Molecular Pain, 2019)

Test: Pharmacokinetic/toxicokinetic study and BBB permeability in rats
Assay type: in vivo
Settings: male, Sprague-Dawley, rat, brain, ip, 10 mg/kg

CN(CCOc1ccc(CC2SC(=O)NC2=O)cc1)c1ccccn1 (stereo not shown) [Rosiglitazone, rosiglitazone, reference compound]
Tmax: 1 h
